Source: ChEMBL document CHEMBL4014324, “Discovery of a Potent Nonpeptidomimetic, Small-Molecule Antagonist of Cellular Inhibitor of Apoptosis Protein 1 (cIAP1) and X-Linked Inhibitor of Apoptosis Protein (XIAP)” (J Med Chem, 2017)

Organism: Homo sapiens
Assay: Selectivity ratio of EC50 for full length FLAG-tagged XIAP (unknown origin) interaction with full length untagged caspase-9 expressed in HEK293 cells to EC50 for cIAP1 degradation in human MDA-MB-231 cells
Format: cell-based

In order of rising Ratio EC50:
1. C[C@@H]1CN(CC(=O)N2CC(C)(C)c3ncc(C(F)(F)c4ccccc4)cc32)[C@@H](CN2CCCC2=O)CN1  0.8
2. CCCC(F)(F)c1cnc2c(c1)N(C(=O)CN1C[C@@H](C)NC[C@@H]1CN1CCCC1=O)CC2(C)C  1.3
3. C[C@@H]1CN(CC(=O)N2CC(C)(C)c3ncc(Cc4ccc(F)cc4F)cc32)[C@@H](CN2CCCC2=O)CN1  28
